From PubChem BioAssay AID488896 (Broad Institute, 2010) come the findings set out here.

Amino acid sequences for entries named in this document (tags omitted).
UniProt Q61009, whole entry: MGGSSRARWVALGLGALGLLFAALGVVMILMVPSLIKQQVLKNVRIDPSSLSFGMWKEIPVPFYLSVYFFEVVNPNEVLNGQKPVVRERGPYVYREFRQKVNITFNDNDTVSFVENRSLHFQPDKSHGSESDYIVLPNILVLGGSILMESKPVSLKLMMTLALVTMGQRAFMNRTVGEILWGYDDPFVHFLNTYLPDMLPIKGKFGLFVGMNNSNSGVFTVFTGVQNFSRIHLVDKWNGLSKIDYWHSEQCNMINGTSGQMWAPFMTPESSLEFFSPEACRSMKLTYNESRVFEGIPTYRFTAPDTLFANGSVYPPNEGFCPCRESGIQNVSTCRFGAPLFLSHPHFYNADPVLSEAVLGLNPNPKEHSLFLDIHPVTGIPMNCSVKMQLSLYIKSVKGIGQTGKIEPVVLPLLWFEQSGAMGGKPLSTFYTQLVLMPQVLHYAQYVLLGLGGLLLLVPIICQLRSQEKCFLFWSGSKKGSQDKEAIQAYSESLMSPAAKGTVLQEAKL

The list shows a part of the results, in another mix than the full data. The source made the active and inactive calls.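 Rule for the calls: active = mean replicate inhibition of at least 70% and a set share of replicates each scoring 70 or more; inconclusive = meets just one of the two criteria; inactive = fails both criteria.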

This experiment concerns the target Scavenger receptor class B member 1 (Mus musculus) (UniProt Q61009). In words: inhibitors of SR-BI mediated HDL lipid uptake, primary screen, ldlA[mSR-BI] cells, fluorescence, single point (AID 488896).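 Note: 0% = median of neutral control wells and 100% = median of positive control wells.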 Conditions: ldlA[mSR-BI] CHO cells, DiI-HDL uptake fluorescence, 3 h; at 12.5 µM; active compounds read high.
Regarding `CCC(=O)N(c1ccccc1)C1(COC)CCN(CCc2cccs2)CC1`, the inhibition (as a rule, the change of the read-out against control, counted positive when it falls) was inactive: -9.44%.
The value for `CCC(=O)N(c1ccccc1)C1(COC)CCN(CCn2nnn(CC)c2=O)CC1` was inactive: -15.2%.
